Source: PubChem BioAssay (NCI)
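Assay format: 96-well plates, 48-hour exposure. GI50 = concentration required for 50% inhibition of growth. TGI: concentration producing complete growth inhibition.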

How the values were obtained:
Assay in all cases: growth of human tumour cells (NCI), 48 h
SF-268 CNS = tested on: SF-268 CNS
HCT-116 colon = tested on: HCT-116 colon
SN12C renal = tested on: SN12C renal
PC-3 prostate = tested on: PC-3 prostate
RXF 393 renal = tested on: RXF 393 renal
A549 NSCLC = tested on: A549 NSCLC
HS 578T breast = tested on: HS 578T breast
MDA-N = tested on: MDA-N
OVCAR-3 ovarian = tested on: OVCAR-3 ovarian
786-0 renal = tested on: 786-0 renal
OVCAR-4 ovarian = tested on: OVCAR-4 ovarian
SF-295 CNS = tested on: SF-295 CNS
HT29 colon = tested on: HT29 colon
MALME-3M melanoma = tested on: MALME-3M melanoma
NCI-H522 lung = tested on: NCI-H522 lung
SF-539 CNS = tested on: SF-539 CNS
OVCAR-8 ovarian = tested on: OVCAR-8 ovarian
UO-31 renal = tested on: UO-31 renal
HOP-92 NSCLC = tested on: HOP-92 NSCLC
OVCAR-5 ovarian = tested on: OVCAR-5 ovarian
CCRF-CEM leukemia = tested on: CCRF-CEM leukemia
NCI-H23 lung = tested on: NCI-H23 lung
RPMI-8226 leukemia = tested on: RPMI-8226 leukemia
MDA-MB-231 breast = tested on: MDA-MB-231 breast
UACC-62 melanoma = tested on: UACC-62 melanoma
COLO 205 colon = tested on: COLO 205 colon
SK-OV-3 ovarian = tested on: SK-OV-3 ovarian
SK-MEL-2 melanoma = tested on: SK-MEL-2 melanoma
MCF7 breast = tested on: MCF7 breast
BT-549 breast = tested on: BT-549 breast
T-47D breast = tested on: T-47D breast
U251 CNS = tested on: U251 CNS
MOLT-4 leukemia = tested on: MOLT-4 leukemia
SR leukemia = tested on: SR leukemia
HOP-62 NSCLC = tested on: HOP-62 NSCLC
SK-MEL-5 melanoma = tested on: SK-MEL-5 melanoma
CAKI-1 renal = tested on: CAKI-1 renal
MDA-MB-435 = tested on: MDA-MB-435
ACHN renal = tested on: ACHN renal
DU-145 prostate = tested on: DU-145 prostate
NCI-H226 lung = tested on: NCI-H226 lung
SNB-75 CNS = tested on: SNB-75 CNS
LOX IMVI melanoma = tested on: LOX IMVI melanoma
EKVX NSCLC = tested on: EKVX NSCLC
HL-60(TB) leukemia = tested on: HL-60(TB) leukemia
IGROV1 ovarian = tested on: IGROV1 ovarian
KM12 colon = tested on: KM12 colon
NCI/ADR-RES ovarian = tested on: NCI/ADR-RES ovarian
M14 melanoma = tested on: M14 melanoma
HCT-15 colon = tested on: HCT-15 colon
SK-MEL-28 melanoma = tested on: SK-MEL-28 melanoma
SNB-19 CNS = tested on: SNB-19 CNS
NCI-H322M lung = tested on: NCI-H322M lung

With O=c1[nH]c2c(N/N=C/c3ccc([N+](=O)[O-])o3)c([N+](=O)[O-])c(N/N=C/c3ccc([N+](=O)[O-])o3)c([N+](=O)[O-])c2[nH]1 the GI50 (SF-268 CNS) was 2.36 µM, the TGI (SF-268 CNS) was 14.2 µM and the GI50 (HCT-116 colon) was 6.43 µM. For the same compound, the TGI (HCT-116 colon) was 21.6 µM, the GI50 (SN12C renal) was 4.43 µM and the TGI (SN12C renal) was 19.9 µM. The GI50 (PC-3 prostate) was 4.45 µM, the TGI (PC-3 prostate) was 20.4 µM and the GI50 (RXF 393 renal) was 3.73 µM. For the same compound, the TGI (RXF 393 renal) was 13.2 µM, the GI50 (A549 NSCLC) was 26.8 µM and the TGI (A549 NSCLC) was 76.9 µM. It also gave a GI50 (HS 578T breast) of 8.59 µM, a TGI (HS 578T breast) of over 100 µM and a GI50 (MDA-N) of 3.73 µM. For the same compound, the TGI (MDA-N) was 19.1 µM, the GI50 (OVCAR-3 ovarian) was 2.8 µM and the TGI (OVCAR-3 ovarian) was 7.71 µM. The GI50 (786-0 renal) was 2.04 µM, the TGI (786-0 renal) was 11.4 µM and the GI50 (OVCAR-4 ovarian) was 3.83 µM. It also gave a TGI (OVCAR-4 ovarian) of 13.3 µM, a GI50 (SF-295 CNS) of 18.7 µM and a TGI (SF-295 CNS) of 37.6 µM. The GI50 (HT29 colon) was 3.15 µM, the TGI (HT29 colon) was 14 µM and the GI50 (MALME-3M melanoma) was 11.6 µM. For the same compound, the TGI (MALME-3M melanoma) was 25.1 µM, the GI50 (NCI-H522 lung) was 1.35 µM and the TGI (NCI-H522 lung) was 2.96 µM. It also gave a GI50 (SF-539 CNS) of 2.55 µM, a TGI (SF-539 CNS) of 7.23 µM and a GI50 (OVCAR-8 ovarian) of 3.77 µM. The TGI (OVCAR-8 ovarian) was 13.4 µM, the GI50 (UO-31 renal) was 13.3 µM and the TGI (UO-31 renal) was 26.8 µM. The GI50 (HOP-92 NSCLC) was 5.11 µM, the TGI (HOP-92 NSCLC) was 17.9 µM and the GI50 (OVCAR-5 ovarian) was 19.1 µM. The TGI (OVCAR-5 ovarian) was 39.5 µM, the GI50 (CCRF-CEM leukemia) was 0.573 µM and the TGI (CCRF-CEM leukemia) was 2.96 µM. It also gave a GI50 (NCI-H23 lung) of 6.44 µM, a TGI (NCI-H23 lung) of 23.1 µM and a GI50 (RPMI-8226 leukemia) of 3.29 µM. For the same compound, the TGI (RPMI-8226 leukemia) was over 100 µM, the GI50 (MDA-MB-231 breast) was 11.9 µM and the TGI (MDA-MB-231 breast) was 27.7 µM. The GI50 (UACC-62 melanoma) was 5.61 µM, the TGI (UACC-62 melanoma) was 19.3 µM and the GI50 (COLO 205 colon) was 2.71 µM. It also gave a TGI (COLO 205 colon) of 8.37 µM, a GI50 (SK-OV-3 ovarian) of 15.1 µM and a TGI (SK-OV-3 ovarian) of 29.2 µM. The GI50 (SK-MEL-2 melanoma) was 3.2 µM, the TGI (SK-MEL-2 melanoma) was 19.3 µM and the GI50 (MCF7 breast) was 1.32 µM. It also gave a TGI (MCF7 breast) of 4.1 µM, a GI50 (BT-549 breast) of 2.84 µM and a TGI (BT-549 breast) of 10.4 µM. The GI50 (T-47D breast) was 1.45 µM, the TGI (T-47D breast) was 6.99 µM and the GI50 (U251 CNS) was 2.75 µM. It also gave a TGI (U251 CNS) of 11.5 µM, a GI50 (MOLT-4 leukemia) of 1.24 µM and a TGI (MOLT-4 leukemia) of 16.6 µM. It also gave a GI50 (SR leukemia) of 1.74 µM, a TGI (SR leukemia) of over 100 µM and a GI50 (HOP-62 NSCLC) of 1.92 µM. For the same compound, the TGI (HOP-62 NSCLC) was 10 µM, the GI50 (SK-MEL-5 melanoma) was 8.06 µM and the TGI (SK-MEL-5 melanoma) was 21.3 µM. The GI50 (CAKI-1 renal) was 6.68 µM, the TGI (CAKI-1 renal) was 25.5 µM and the GI50 (MDA-MB-435) was 2.7 µM. The TGI (MDA-MB-435) was 7.35 µM, the GI50 (ACHN renal) was 3.23 µM and the TGI (ACHN renal) was 10.2 µM. The GI50 (DU-145 prostate) was 3.21 µM, the TGI (DU-145 prostate) was 14.1 µM and the GI50 (NCI-H226 lung) was 5.7 µM. It also gave a TGI (NCI-H226 lung) of 20.3 µM, a GI50 (SNB-75 CNS) of 3.21 µM and a TGI (SNB-75 CNS) of 12.2 µM. The GI50 (LOX IMVI melanoma) was 3.77 µM, the TGI (LOX IMVI melanoma) was 14.7 µM and the GI50 (EKVX NSCLC) was 14.8 µM. The TGI (EKVX NSCLC) was 30.2 µM, the GI50 (HL-60(TB) leukemia) was 12 µM and the TGI (HL-60(TB) leukemia) was 51.4 µM. The GI50 (IGROV1 ovarian) was 6.2 µM, the TGI (IGROV1 ovarian) was 18.6 µM and the GI50 (KM12 colon) was 6.01 µM. The TGI (KM12 colon) was 20.8 µM, the GI50 (NCI/ADR-RES ovarian) was 7.74 µM and the TGI (NCI/ADR-RES ovarian) was 42.5 µM. For the same compound, the GI50 (M14 melanoma) was 4.64 µM, the TGI (M14 melanoma) was 18.8 µM and the GI50 (HCT-15 colon) was 1.9 µM. The TGI (HCT-15 colon) was 4.89 µM, the GI50 (SK-MEL-28 melanoma) was 6.02 µM and the TGI (SK-MEL-28 melanoma) was 25.1 µM. The GI50 (SNB-19 CNS) was 7.2 µM, the TGI (SNB-19 CNS) was 22.5 µM and the GI50 (NCI-H322M lung) was 10.4 µM. It also gave a TGI (NCI-H322M lung) of 23.9 µM.
